Results from ChEMBL document CHEMBL2176897, “Synthesis and biological evaluation (in vitro and in vivo) of cyclic arginine-glycine-aspartate (RGD) peptidomimetic-paclitaxel conjugates targeting integrin αVβ3” (J Med Chem, 2012).

test: Selectivity ratio of IC50 for integrin alphaVbeta5 receptor to IC50 for integrin alphaVbeta3 receptor

Ratio IC50, 20:
N=C(N)NCCC[C@@H]1NC(=O)C[C@H]2NC(=O)[C@H](CNC(=O)[C@H](CC(=O)O)NC(=O)CNC1=O)N(Cc1ccc(CN)cc1)C2=O.O=C(O)C(F)(F)F, CC(=O)O[C@H]1C(=O)[C@@]2(C)[C@H]([C@H](OC(=O)c3ccccc3)[C@]3(O)C[C@H](OC(=O)[C@H](OC(=O)CCC(=O)NCc4ccc(CN5C(=O)[C@H]6CNC(=O)[C@H](CC(=O)O)NC(=O)CNC(=O)[C@H](CCCNC(=N)N)NC(=O)C[C@H]5C(=O)N6)cc4)[C@@H](NC(=O)c4ccccc4)c4ccccc4)C(C)=C1C3(C)C)[C@]1(OC(C)=O)CO[C@@H]1C[C@@H]2O, CC(=O)O[C@H]1C(=O)[C@@]2(C)[C@H]([C@H](OC(=O)c3ccccc3)[C@]3(O)C[C@H](OC(=O)[C@H](OC(=O)CCC(=O)NCc4ccc(CN5C(=O)[C@@H]6CNC(=O)[C@H](CC(=O)O)NC(=O)CNC(=O)[C@H](CCCNC(=N)N)NC(=O)C[C@@H]5C(=O)N6)cc4)[C@@H](NC(=O)c4ccccc4)c4ccccc4)C(C)=C1C3(C)C)[C@]1(OC(C)=O)CO[C@@H]1C[C@@H]2O
